# AlphaSeq binding of Ab-14 light chain variants to a spike HR2 peptide

Data: MIT Lincoln Laboratory AlphaSeq set, Li et al. 2023, doi:10.1038/s41467-023-39022-2, as distributed in FLAb.

All variants were tested on one target, the spike HR2 peptide PDVDLGDISGINAS (SARS-CoV-2).

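Phage display of a naive human antibody library on the peptide gave the parent. This is the validation round: designs drawn from the data on random variants, tested in the same kind of assay. Several design methods are mixed in this list. AlphaSeq pools MATa yeast showing the antibodies with MATalpha yeast showing the peptide. Pairs that bind mate more often; barcode pairs of the diploids are counted by sequencing. A regression on co-assayed BCL2-family reference pairs converts the normalised counts of each replicate to an apparent Kd. The assay was run in six technical replicates.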

The variants keep the heavy chain, the linker and the frameworks of Ab-14 (scFv order VH, a 15-residue (Gly4Ser)3 linker, VL).
VH: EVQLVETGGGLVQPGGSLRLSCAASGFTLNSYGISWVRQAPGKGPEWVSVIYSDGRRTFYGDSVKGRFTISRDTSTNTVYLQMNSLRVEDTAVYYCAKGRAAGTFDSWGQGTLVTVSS
VL: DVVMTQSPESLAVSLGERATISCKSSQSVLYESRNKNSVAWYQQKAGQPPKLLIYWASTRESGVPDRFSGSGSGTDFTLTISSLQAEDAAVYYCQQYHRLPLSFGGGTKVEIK

The parent's light chain CDRs are KSSQSVLYESRNKNSVA, WASTRES, QQYHRLPLS; each variant's own CDRs replace them letter for letter.
Numbers give log10(Kd / nM), so 0 is 1 nM and 3 is 1 µM. Smaller is tighter.
Averages over replicates are reported, and they cover detected replicates only.
Where no diploid with the target was found in any replicate, the entry reads "not detected": below detection, most likely a poor binder, though not proof of it.
Nonspecific signal, from three strains lacking the peptide, appeared in 4% of pairings of all light chain designs, centred on 2.64 (5% of these signals below 1.59); values are not corrected for it.
Of ten entries with the parent sequence, four were seen in most replicates (averages 0.34 to 2.37), three in one and three in none, so single entries are noisy.
Values of this round are not directly comparable with the first-round values of the same sequences.
In the paper, a design with two or fewer of six values counts as a poor binder.

CDR-L1	CDR-L2	CDR-L3	log10 Kd (nM), mean	seen in
VLGGQWGLGTTQNSSIA	NVSETML	QQYWRLPLM	1.55	4/6
KQTQSVLYESRNKNSVA	WASTRES	QQYHRLPLS	1.69	3/6
HIDDFEPSEGEKWNAIA	QDATRLQ	QAYQRLPLS	1.48	6/6
MVTQMAMTGMKNKRSVA	NATTRES	QQYHRLPLI	0.68	6/6
KHLQSVLYESRNKNSVA	HASTRED	QQYHQLPLS	0.06	6/6
EIRWQQYDQSEMEANIA	QESTRHQ	QQYFRLPLS	1.70	1/6
QLSGPMLSESKNKNSVA	EFSTRGS	QQYHRLPLS	1.72	6/6
KVSQSVCYEDRNKNNVA	NASDRMS	QQYHRLPLS	0.47	6/6
KLEPSEEEESRNKNSVA	SASTRES	QQYHRLPLS	-0.53	6/6
KLSQSWLYESRNSMSVA	DASTRLS	QQYHRLPLS	-0.28	6/6
KHSQSELMESRNKNSVA	DASTRES	QQYHRLPLS	-0.21	6/6
KVYQSELYESRNKNSVA	NASQRES	QQYHRLPLS	0.05	6/6
HMNHEYLEYSNYEGAIA	HGSQRLY	QQYSHLPLS	0.20	6/6
KMSQEKLYESRNKNSVA	DASTRES	QQYHRLPLS	-0.13	6/6
SMQVYTENFMEIGQNIA	DVSATTA	QQYHRLPLA	0.54	6/6
KSDQGVLYQSRNKNSVA	GASTRES	QQYHRLPLS	0.00	6/6
FISLCQNSYEDANNSIA	DRNERAM	QQYGRLPLV	1.58	4/6
KIMQSVLYESRNKNSVA	NASTRMS	QQYHRLPLS	0.45	6/6
MLTMFNNENQGRSNNIA	DTNNVQE	QQYSRLPFA	0.57	6/6
KLGAWMYWPTEAKYAIA	QDEMRVH	QQYDRLPLT	2.55	1/6
KLSGSMLYEQRMKNSVA	QASQRLS	QQYHRLPLS	0.25	6/6
KVSEFMKGLMMRTDSIA	DNVTRNN	QQYDRLPLS	2.15	6/6
SLRAMILDWDNKMQNIA	DVHMREQ	QQYNRLPIV	0.47	6/6
MLSEVLHMLGVQKNSIA	DLVLRAN	QQYHRLPLF	not detected	0/6
KVSQLELYESRNANNVA	NASTREN	QQYHRLPLS	0.17	6/6
KLQQSHLYESRNKNSVA	HASTRES	QQYHRLPLS	0.31	6/6
KLSQGNLYESRNKNSVA	NASTRES	QQYHRLPLS	-0.12	6/6
MLSEFMHMLGAKKNSIA	DLVVRAN	QQYHRLPLA	1.16	6/6
ILEENSDDITEKQNSIA	ETQMVYS	QQYHRLPLA	1.34	6/6
KVSQSILYESRNDSSVA	WADTRES	QQYHRLPLS	2.47	6/6
KLRQSAHIESFNKNNVA	EMTTRES	QSYDRLPLS	0.59	6/6
KLSISHQVESINKSNVA	EMVTRES	QQYDRLPLT	1.77	5/6
KRSQSVLYESRNKNSVA	QASTRES	QQYHRMPLS	0.63	1/6
KMQAGQGYESRNKNSVA	QGSKRES	QQYHRLPLS	0.73	6/6
KSSQSMLYESENKNSVA	KATTRTR	QQYHRLPLS	1.38	6/6
KSSQSVLYESRNKNSVA	QASTRES	QQPIRLPLS	0.66	6/6
ILSQSVLMGMHTKNSVA	QATMRFN	QQYHRLPFM	1.74	6/6
KSELSKLYESRDKNSVA	WASTRES	QQYHRLPLS	1.21	1/6
KISQMVTYESTWHNAIA	QTSEREP	QQYHRLPFS	0.40	6/6
KLSQSVLYESRNKNAVA	EASTREQ	QQYHRLPLS	0.10	6/6
TISQMFLGESRNRNSVA	QASTRPS	QSYDRLPLS	0.80	6/6
KMSQSVPYEERNLNNVA	NGSTRES	QQYHRLPLS	0.10	6/6
HFQHLGFGDFAWANSIA	ERSQVCE	QQYFRLPLG	1.16	6/6
MISQLFMYGSRNYNSVA	QASTREE	QQYDRLPLI	1.05	6/6
KLYYDAAQRVQDAENIA	EKTESYQ	QQYHRLPLS	3.07	3/6
IAKQSWLYESRNKNSVA	GASTRES	QQYHRLPLI	0.19	6/6
KISMLLNMTFEASNNVA	EMATREK	QQYNRLPLS	0.43	6/6
KMEQGTLYESRNKNSVA	GASVRES	QQYHRLPLS	-0.16	6/6
HSSPSVLYESRNKNSVA	NASTRLS	QQYHRLPLS	0.25	6/6
KFSQSDPYEDRNKNSVA	NASTRSS	QQYHRLPLS	-0.19	6/6
KVNGLMNISQMNSKSVA	QSSTREN	QQYHRLPLS	0.20	6/6
KLKYQADHYGMNQGNVA	QADIRAP	QQYNKLPLN	0.95	1/6
KSSHSVLYESRNKNSIA	GASIRES	QDQHRLPLS	1.93	1/6
KHSISYLEESRNKNSVA	EASTRES	QQYHRLPLS	0.50	6/6
KVSSFMRGLMMRKDSIA	DNETRSQ	QQYDRLPLS	1.99	5/6
KVSQKVLYEGRTKNSVA	NASTRES	QQYHRLPLS	0.26	6/6
KLSQSELYESRNKNSVA	NASTRMV	QQYHRLPLS	-0.24	6/6
HIGLSTMLEEIVRNSVA	NNSTREE	QQYDRLPLS	2.44	5/6
KLMQGDEYESRNKNSVA	NASKRLE	QQYHRLPLS	0.01	6/6
KSSQTVLAESRNKNSVA	WASVRIS	QQYHRKPLS	not detected	0/6
KVRQSTLYESRNKNAVA	WASTRES	QQYHRLPLS	0.49	6/6
KSSQSVLYESRNANSVA	DASTREQ	QQYHRLPLS	-0.34	6/6
KVEPSVQGEQRNMNAVA	SASTREQ	QQYHRLPLS	0.11	6/6
KSIQSVLYEERNKNSVA	WASTRES	QQYHRLPLS	2.58	4/6
KLSQSVLYEDRMKNSVA	NASTRES	QQYHRLPLS	0.19	6/6
KMSQSVLYESRNKYSVA	WASTRIS	QQYHRLPLS	1.56	6/6
KSSQSVLIESRNKNSVA	HASTRES	QQYHRLPLS	1.57	5/6
KTPQGVLYESRNKNSVA	QASVRES	QQYHRLPLS	0.16	6/6
KQSQSVLMESRNKNSVA	DASTRES	QQYVRLPLS	-0.32	6/6
KSSISYLYESRNKNSVA	EASTREQ	QQYHRLPLS	0.42	6/6
VISESVMYESRNRNSVA	DNSTRED	QCYDRLPLS	-0.27	6/6
MSSQSVLYDSRNKNSVA	WASTREV	QQYHRLPLS	not detected	0/6
MISQLMNLGQFAINSVA	QASIRNS	QQYDRLPLA	2.18	5/6
KSSQSVLYESRNKNSVA	YASTRES	QQYHMLPLS	2.09	5/6
TISQSWNMTSRGINSVA	QAEMRES	QQYDRLPLS	2.23	6/6

The 8 strongest on average among those seen in every replicate, once more:

CDR-L1	CDR-L2	CDR-L3	log10 Kd (nM), mean	seen in
KLEPSEEEESRNKNSVA	SASTRES	QQYHRLPLS	-0.53	6/6
KSSQSVLYESRNANSVA	DASTREQ	QQYHRLPLS	-0.34	6/6
KQSQSVLMESRNKNSVA	DASTRES	QQYVRLPLS	-0.32	6/6
KLSQSWLYESRNSMSVA	DASTRLS	QQYHRLPLS	-0.28	6/6
VISESVMYESRNRNSVA	DNSTRED	QCYDRLPLS	-0.27	6/6
KLSQSELYESRNKNSVA	NASTRMV	QQYHRLPLS	-0.24	6/6
KHSQSELMESRNKNSVA	DASTRES	QQYHRLPLS	-0.21	6/6
KFSQSDPYEDRNKNSVA	NASTRSS	QQYHRLPLS	-0.19	6/6